Data: patent US5633345A, “Cyclic peptides” (priority 1992, dated 1997)

Conditions: mouse, in vivo, ip, 100 mg/kg

| Substance | toxicity signs |
| --- | --- |
| cyclo(L-RONva-L-MeVal-L-Leu-L-βHOMeVal-D-Hmp-L-MeVal-L-Phe-L-MePhe-L- Pro) (R: n-hexanoyl) [Compound 37] | no toxicity signs |
| cyclo(L-aIle-L-MeVal-L-GluOR-L-βHOMeVal-D-Hmp-L-MeVal-L-Phe-L-MePhe-L-Pro) (R: cHex) [Compound 38] | no toxicity signs |
| cyclo(L-GluOR-L-MeVal-L-Leu-L-βHOMeVal-D-Hmp-L-MeVal-L-Phe-L-MePhe-L- Pro) (R: n-decyl) [Compound 33] | no toxicity signs |
| cyclo(L-GluOR-L-MeVal-L-Leu-L-βHOMeVal-D-Hmp-L-MeVal-L-Phe-L-MePhe-L- Pro) (R: n-hexyl) [Compound 31] | no toxicity signs |
| cyclo(L-aIle-L-ROMeNva-L-Leu-L-βHOMeVal-D-Hmp-L-MeVal-L-Phe-L-MePhe-L-Pro) (R: Bzl) [Compound 27] | no toxicity signs |
| cyclo(L-GluOR-L-MeVal-L-Leu-L-βHOMeVal-D-Hmp-L-MeVal-L-Phe-L-MePhe-L- Pro) (R: n-octyl) [Compound 32] | no toxicity signs |
